Literature values, collected in patent US20250235429A1, “TREATMENT OF DISEASES VIA ADMINISTRATION OF BUNTANETAP AND AN ANTIDIABETIC AGENT” (ANNOVIS BIO, INC., priority 2024, published 2025).

Conditions: in vivo; cited from earlier work

Row | Substance | duration | onset | peak concentration occurs after administration
1 | Regular insulin | 5 to 8 h | 30 to 60 min | 2 to 4 h
2 | NPH insulin | 14 to 24 h | – | 4 to 12 h
